Values of other authors as cited in patent US20210145842A1, “NEW THERAPEUTIC USES” (NOVARTIS AG, priority 2018, published 2021).

Test system: patients with advanced NSCLC with EGFR activating mutations
Conditions: IPASS; cited from earlier work

COc1cc2ncnc(Nc3ccc(F)c(Cl)c3)c2cc1OCCCN1CCOCC1 [gefitinib]
ORR: 71.2%
PFS: 9.5 months
